For experiment [1], the target named is CYP2C19 (Homo sapiens, UniProt P33261). The experiment in a line: CYP450 inhibition in human liver microsomes. For orientation: Microsomes from liver hold many membrane-bound enzymes, among them those of drug oxidation.
The target of experiment [2] is CYP3A4 (Homo sapiens, UniProt P08684). Briefly: CYP450 inhibition in human liver microsomes.
In experiment [3] the target is T1, human adenosine A3 receptor (Homo sapiens, UniProt P0DMS8).
T1 construct: expressed in transfected cells; host or cells: CHO-K1
Briefly: Adenosine A3 receptor radioligand binding assay ([125I] AB-MECA). The conditions noted are these: 0.5 nM [125I] AB-MECA, CHO-K1 cells.

Amino acid sequences for entries named in this document (tags omitted).
UniProt P33261, whole entry: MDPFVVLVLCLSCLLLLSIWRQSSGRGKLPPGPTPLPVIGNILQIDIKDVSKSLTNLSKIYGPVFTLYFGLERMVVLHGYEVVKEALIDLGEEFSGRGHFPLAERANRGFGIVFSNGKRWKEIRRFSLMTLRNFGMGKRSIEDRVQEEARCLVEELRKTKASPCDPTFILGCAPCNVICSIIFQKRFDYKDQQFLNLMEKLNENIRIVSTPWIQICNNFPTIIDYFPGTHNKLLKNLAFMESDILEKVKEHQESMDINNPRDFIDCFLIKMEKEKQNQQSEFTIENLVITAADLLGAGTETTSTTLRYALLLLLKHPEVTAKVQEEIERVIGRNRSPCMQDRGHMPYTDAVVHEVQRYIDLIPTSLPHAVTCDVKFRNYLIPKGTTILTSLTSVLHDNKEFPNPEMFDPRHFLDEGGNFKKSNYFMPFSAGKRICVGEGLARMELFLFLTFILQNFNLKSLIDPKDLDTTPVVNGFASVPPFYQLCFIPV
UniProt P08684, whole entry: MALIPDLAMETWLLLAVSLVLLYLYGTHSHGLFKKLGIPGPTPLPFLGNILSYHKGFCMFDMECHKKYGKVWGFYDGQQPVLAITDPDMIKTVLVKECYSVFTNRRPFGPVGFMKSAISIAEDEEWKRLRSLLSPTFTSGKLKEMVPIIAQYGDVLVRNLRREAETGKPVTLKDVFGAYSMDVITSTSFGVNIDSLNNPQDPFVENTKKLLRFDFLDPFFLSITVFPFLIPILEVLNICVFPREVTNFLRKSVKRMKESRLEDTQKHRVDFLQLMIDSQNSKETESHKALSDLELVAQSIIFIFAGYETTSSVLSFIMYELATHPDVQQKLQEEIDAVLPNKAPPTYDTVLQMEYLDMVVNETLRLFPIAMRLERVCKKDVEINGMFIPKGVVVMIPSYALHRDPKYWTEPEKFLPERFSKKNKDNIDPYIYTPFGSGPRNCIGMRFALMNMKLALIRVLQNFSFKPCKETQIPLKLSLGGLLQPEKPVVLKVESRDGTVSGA
UniProt P0DMS8, whole entry: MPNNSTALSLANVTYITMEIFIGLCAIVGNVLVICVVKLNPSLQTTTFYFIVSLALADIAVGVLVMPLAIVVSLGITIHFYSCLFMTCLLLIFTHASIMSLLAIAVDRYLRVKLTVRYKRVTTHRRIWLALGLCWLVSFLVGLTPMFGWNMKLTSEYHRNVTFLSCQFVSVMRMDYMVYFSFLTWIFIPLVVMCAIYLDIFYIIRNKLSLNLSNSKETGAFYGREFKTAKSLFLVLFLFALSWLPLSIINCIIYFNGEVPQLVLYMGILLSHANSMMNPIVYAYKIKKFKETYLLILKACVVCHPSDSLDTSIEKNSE

Take `Cc1cc(Nc2nc([C@@H](O)c3ccc(F)cc3)nc3ccccc23)n[nH]1` [(S)(+)]: the IC50 (in general, the concentration that inhibits the measured activity by half) in experiment [1] turned out to be 15.9 µM; in experiment [2], 10.5 µM.
Consider `Cc1cc(Nc2nc([C@H](O)c3ccc(F)cc3)nc3ccccc23)n[nH]1` [(R)(−)], for which the IC50 in experiment [3] amounted to 0.028 µM; in experiment [1], 11.8 µM; in experiment [2] it was 14.8 µM.
With `Cc1cc(Nc2nc(C(O)c3ccc(F)cc3)nc3ccccc23)n[nH]1` (racemic) [Racemate], the IC50 is 14.7 µM in experiment [1] and 10.9 µM in experiment [2].
